Assay results: PubChem BioAssay (NCI)
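Cells were grown in 96-well plates and exposed to each compound for 48 hours at five concentrations; endpoints were interpolated linearly between bracketing concentrations, or set to the highest concentration if not reached. At the GI50, growth is halved. TGI is the concentration that stops growth completely.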

What was measured:
Assay in all cases: DTP human tumour cell line panel, 48 h
MDA-MB-435 = system: MDA-MB-435
HCT-116 colon = system: HCT-116 colon
HCT-15 colon = system: HCT-15 colon
COLO 205 colon = system: COLO 205 colon
DU-145 prostate = system: DU-145 prostate
SNB-19 CNS = system: SNB-19 CNS
HOP-92 NSCLC = system: HOP-92 NSCLC
UACC-62 melanoma = system: UACC-62 melanoma
SN12C renal = system: SN12C renal
ACHN renal = system: ACHN renal
BT-549 breast = system: BT-549 breast
A549 NSCLC = system: A549 NSCLC
KM12 colon = system: KM12 colon
SF-295 CNS = system: SF-295 CNS
HS 578T breast = system: HS 578T breast
CAKI-1 renal = system: CAKI-1 renal
LOX IMVI melanoma = system: LOX IMVI melanoma
HL-60(TB) leukemia = system: HL-60(TB) leukemia
NCI/ADR-RES ovarian = system: NCI/ADR-RES ovarian
T-47D breast = system: T-47D breast
786-0 renal = system: 786-0 renal
EKVX NSCLC = system: EKVX NSCLC
NCI-H322M lung = system: NCI-H322M lung
OVCAR-8 ovarian = system: OVCAR-8 ovarian
SK-OV-3 ovarian = system: SK-OV-3 ovarian
RPMI-8226 leukemia = system: RPMI-8226 leukemia
SK-MEL-2 melanoma = system: SK-MEL-2 melanoma
PC-3 prostate = system: PC-3 prostate
NCI-H23 lung = system: NCI-H23 lung
UO-31 renal = system: UO-31 renal
RXF 393 renal = system: RXF 393 renal
MDA-MB-231 breast = system: MDA-MB-231 breast
SR leukemia = system: SR leukemia
SF-268 CNS = system: SF-268 CNS
SK-MEL-28 melanoma = system: SK-MEL-28 melanoma
MALME-3M melanoma = system: MALME-3M melanoma
MOLT-4 leukemia = system: MOLT-4 leukemia
M14 melanoma = system: M14 melanoma
SK-MEL-5 melanoma = system: SK-MEL-5 melanoma
IGROV1 ovarian = system: IGROV1 ovarian
OVCAR-3 ovarian = system: OVCAR-3 ovarian
U251 CNS = system: U251 CNS
MDA-N = system: MDA-N
NCI-H522 lung = system: NCI-H522 lung
HOP-62 NSCLC = system: HOP-62 NSCLC
SNB-75 CNS = system: SNB-75 CNS
OVCAR-5 ovarian = system: OVCAR-5 ovarian
SF-539 CNS = system: SF-539 CNS
NCI-H226 lung = system: NCI-H226 lung
OVCAR-4 ovarian = system: OVCAR-4 ovarian
HT29 colon = system: HT29 colon
CCRF-CEM leukemia = system: CCRF-CEM leukemia
MCF7 breast = system: MCF7 breast

O=c1[nH]c2c(N/N=C/c3ccc([N+](=O)[O-])o3)c([N+](=O)[O-])c(N/N=C/c3ccc([N+](=O)[O-])o3)c([N+](=O)[O-])c2[nH]1 was tested, and the GI50 (MDA-MB-435) was 2.7 µM, the TGI (MDA-MB-435) was 7.35 µM and the GI50 (HCT-116 colon) was 6.43 µM. It also gave a TGI (HCT-116 colon) of 21.6 µM, a GI50 (HCT-15 colon) of 1.9 µM and a TGI (HCT-15 colon) of 4.89 µM. It also gave a GI50 (COLO 205 colon) of 2.71 µM, a TGI (COLO 205 colon) of 8.37 µM and a GI50 (DU-145 prostate) of 3.21 µM. For the same molecule, the TGI (DU-145 prostate) was 14.1 µM, the GI50 (SNB-19 CNS) was 7.2 µM and the TGI (SNB-19 CNS) was 22.5 µM. It also gave a GI50 (HOP-92 NSCLC) of 5.11 µM, a TGI (HOP-92 NSCLC) of 17.9 µM and a GI50 (UACC-62 melanoma) of 5.61 µM. The TGI (UACC-62 melanoma) was 19.3 µM, the GI50 (SN12C renal) was 4.43 µM and the TGI (SN12C renal) was 19.9 µM. For the same molecule, the GI50 (ACHN renal) was 3.23 µM, the TGI (ACHN renal) was 10.2 µM and the GI50 (BT-549 breast) was 2.84 µM. It also gave a TGI (BT-549 breast) of 10.4 µM, a GI50 (A549 NSCLC) of 26.8 µM and a TGI (A549 NSCLC) of 76.9 µM. The GI50 (KM12 colon) was 6.01 µM, the TGI (KM12 colon) was 20.8 µM and the GI50 (SF-295 CNS) was 18.7 µM. For the same molecule, the TGI (SF-295 CNS) was 37.6 µM, the GI50 (HS 578T breast) was 8.59 µM and the TGI (HS 578T breast) was > 100 µM. It also gave a GI50 (CAKI-1 renal) of 6.68 µM, a TGI (CAKI-1 renal) of 25.5 µM and a GI50 (LOX IMVI melanoma) of 3.77 µM. It also gave a TGI (LOX IMVI melanoma) of 14.7 µM, a GI50 (HL-60(TB) leukemia) of 12 µM and a TGI (HL-60(TB) leukemia) of 51.4 µM. For the same molecule, the GI50 (NCI/ADR-RES ovarian) was 7.74 µM, the TGI (NCI/ADR-RES ovarian) was 42.5 µM and the GI50 (T-47D breast) was 1.45 µM. It also gave a TGI (T-47D breast) of 6.99 µM, a GI50 (786-0 renal) of 2.04 µM and a TGI (786-0 renal) of 11.4 µM. It also gave a GI50 (EKVX NSCLC) of 14.8 µM, a TGI (EKVX NSCLC) of 30.2 µM and a GI50 (NCI-H322M lung) of 10.4 µM. For the same molecule, the TGI (NCI-H322M lung) was 23.9 µM, the GI50 (OVCAR-8 ovarian) was 3.77 µM and the TGI (OVCAR-8 ovarian) was 13.4 µM. It also gave a GI50 (SK-OV-3 ovarian) of 15.1 µM, a TGI (SK-OV-3 ovarian) of 29.2 µM and a GI50 (RPMI-8226 leukemia) of 3.29 µM. The TGI (RPMI-8226 leukemia) was > 100 µM, the GI50 (SK-MEL-2 melanoma) was 3.2 µM and the TGI (SK-MEL-2 melanoma) was 19.3 µM. For the same molecule, the GI50 (PC-3 prostate) was 4.45 µM, the TGI (PC-3 prostate) was 20.4 µM and the GI50 (NCI-H23 lung) was 6.44 µM. It also gave a TGI (NCI-H23 lung) of 23.1 µM, a GI50 (UO-31 renal) of 13.3 µM and a TGI (UO-31 renal) of 26.8 µM. The GI50 (RXF 393 renal) was 3.73 µM, the TGI (RXF 393 renal) was 13.2 µM and the GI50 (MDA-MB-231 breast) was 11.9 µM. The TGI (MDA-MB-231 breast) was 27.7 µM, the GI50 (SR leukemia) was 1.74 µM and the TGI (SR leukemia) was > 100 µM. It also gave a GI50 (SF-268 CNS) of 2.36 µM, a TGI (SF-268 CNS) of 14.2 µM and a GI50 (SK-MEL-28 melanoma) of 6.02 µM. It also gave a TGI (SK-MEL-28 melanoma) of 25.1 µM, a GI50 (MALME-3M melanoma) of 11.6 µM and a TGI (MALME-3M melanoma) of 25.1 µM. The GI50 (MOLT-4 leukemia) was 1.24 µM, the TGI (MOLT-4 leukemia) was 16.6 µM and the GI50 (M14 melanoma) was 4.64 µM. For the same molecule, the TGI (M14 melanoma) was 18.8 µM, the GI50 (SK-MEL-5 melanoma) was 8.06 µM and the TGI (SK-MEL-5 melanoma) was 21.3 µM. For the same molecule, the GI50 (IGROV1 ovarian) was 6.2 µM, the TGI (IGROV1 ovarian) was 18.6 µM and the GI50 (OVCAR-3 ovarian) was 2.8 µM. The TGI (OVCAR-3 ovarian) was 7.71 µM, the GI50 (U251 CNS) was 2.75 µM and the TGI (U251 CNS) was 11.5 µM. For the same molecule, the GI50 (MDA-N) was 3.73 µM, the TGI (MDA-N) was 19.1 µM and the GI50 (NCI-H522 lung) was 1.35 µM. For the same molecule, the TGI (NCI-H522 lung) was 2.96 µM, the GI50 (HOP-62 NSCLC) was 1.92 µM and the TGI (HOP-62 NSCLC) was 10 µM. For the same molecule, the GI50 (SNB-75 CNS) was 3.21 µM, the TGI (SNB-75 CNS) was 12.2 µM and the GI50 (OVCAR-5 ovarian) was 19.1 µM. For the same molecule, the TGI (OVCAR-5 ovarian) was 39.5 µM, the GI50 (SF-539 CNS) was 2.55 µM and the TGI (SF-539 CNS) was 7.23 µM. For the same molecule, the GI50 (NCI-H226 lung) was 5.7 µM, the TGI (NCI-H226 lung) was 20.3 µM and the GI50 (OVCAR-4 ovarian) was 3.83 µM. The TGI (OVCAR-4 ovarian) was 13.3 µM, the GI50 (HT29 colon) was 3.15 µM and the TGI (HT29 colon) was 14 µM. It also gave a GI50 (CCRF-CEM leukemia) of 0.573 µM, a TGI (CCRF-CEM leukemia) of 2.96 µM and a GI50 (MCF7 breast) of 1.32 µM. For the same molecule, the TGI (MCF7 breast) was 4.1 µM.
